In this assay the target is RUMGNA_01526 (tryptophan decarboxylase from Ruminococcus gnavus ATCC 29149), one monomer of the homodimer (Ruminococcus gnavus ATCC 29149) (UniProt A7B1V0). Briefly: X-ray crystal structure of RUMGNA_01526 at 2.8 A.

In turn, “RUMGNA_01526 (tryptophan decarboxylase from Ruminococcus gnavus ATCC 29149), one monomer of the homodimer (from UniProt A7B1V0 1-490) (enzyme)” came in with an area buried at the dimer interface of 4560 Å^2.

For the origin of these results see patent publication US20170042860A1.
